scFv variants of Ab-14 (light chain) against a SARS-CoV-2 spike peptide

The measurements come from Li et al. 2023 (doi:10.1038/s41467-023-39022-2) through the FLAb antibody collection.

Binding partner: SARS-CoV-2 spike HR2 peptide, sequence PDVDLGDISGINAS.

Parent scFv Ab-14: VH joined to VL by the linker GGGGSGGGGSGGGGS. Changes lie in the light chain CDRs alone.
VH: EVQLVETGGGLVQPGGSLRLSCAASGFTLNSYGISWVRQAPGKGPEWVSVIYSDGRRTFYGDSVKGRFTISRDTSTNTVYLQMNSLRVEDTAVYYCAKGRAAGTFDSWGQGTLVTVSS
VL: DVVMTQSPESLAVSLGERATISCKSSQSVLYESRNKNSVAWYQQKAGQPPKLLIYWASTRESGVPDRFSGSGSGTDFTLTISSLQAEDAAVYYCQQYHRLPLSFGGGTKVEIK

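These sequences belong to a second round, designed from the earlier measurements on random variants of the parent. Several design methods are mixed in this list. The assay is AlphaSeq: two haploid yeast populations carry antibody and antigen on their surface. Pairs that bind mate more often; barcode pairs of the diploids are counted by sequencing. A regression on co-assayed BCL2-family reference pairs converts the normalised counts of each replicate to an apparent Kd. Each pool was mated in six replicate cultures.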

Substitutions are numbered in sequence along the VL above, starting at 1 (not Kabat).
Variants here have at most six changes.
Values are apparent Kd, the geometric mean of the replicates that gave a signal; lower means stronger binding.
An entry "no signal" has no value in the source: the pair was not observed among the diploids in any replicate. This suggests poor binding but is not conclusive.

Variant S25L/L30W/R34F/W56E gave 130 nM (3 of 6 replicates).
Variant S25F/S28E/V29M/W56N/T59C/H98W gave 1.3 nM (6 of 6 replicates).
Variant Y31E/R34K gave 4.8 nM (6 of 6 replicates).
Variant S25V/S26R/V29Q/W56N/T59Q gave 370 pM (6 of 6 replicates).
Variant S25L/Q95S/Q96A gave 350 nM (4 of 6 replicates).
Variant S25L/S38N/W56S/E61S gave 530 pM (6 of 6 replicates).
Variant S25M/S26L/S28G/W56G gave 1.4 nM (6 of 6 replicates).
Variant S26A/V29L/N35F/W56G gave 14 nM (6 of 6 replicates).
Variant S25L/S26E/V29E/W56E gave 770 pM (6 of 6 replicates).
Variant S25L/V29W/K36P/W56N/T59Q gave 1.1 nM (6 of 6 replicates).
Variant S25Q/W56E/S103D gave 11 nM (5 of 6 replicates).
Variant S25I/R34V gave 4.4 nM (6 of 6 replicates).
Variant W56Q/S62D gave 1.1 nM (5 of 6 replicates).
Variant Q27S/R34A/W56N/S103N gave 1.9 nM (6 of 6 replicates).
Variant S25L/S26E/L30E/W56E gave 650 pM (6 of 6 replicates).
Variant S25M/V29W/S33D/N35V/W56G gave 920 pM (6 of 6 replicates).
Variant S25A/S103E gave 93 nM (2 of 6 replicates).
Variant K24V/Q27M/S28P/W56K/T59H gave 94 nM (4 of 6 replicates).
Variant K24N/V29W/W56Q/A57G/S58N/T59H gave 3.1 nM (6 of 6 replicates).
Variant V29K/K36T gave 110 nM (1 of 6 replicates).
Variant K24H/Q27P/W56P gave 25 nM (6 of 6 replicates).
Variant L30P/W56A gave 390 nM (3 of 6 replicates).
Variant S33M/R34W/K36T/W56A gave 98 nM (5 of 6 replicates).
Variant S25L/S26R/W56N gave 360 pM (6 of 6 replicates).
Variant S25L/S33G/N35T/W56N gave 790 pM (6 of 6 replicates).
Variant Q27C/V29Y/W56E/S103M gave 920 pM (6 of 6 replicates).
Variant N35M/P101D gave no signal (0 of 6 replicates).
Variant S25L/W56E/Q96C gave 3.8 nM (6 of 6 replicates).
Variant S25V/V29N/W56N/E61C gave 1.2 nM (6 of 6 replicates).
Variant K24H/Q27P/V29G/L30A/W56N gave 1.1 nM (6 of 6 replicates).
Variant Q27G/V29W/W56G/T59L gave 480 pM (6 of 6 replicates).
Variant S25V/V29E/W56H/T59Q gave 1.1 nM (6 of 6 replicates).
Variant S25L/V29H/W56N/E61L gave 1.2 nM (6 of 6 replicates).
Variant S25L/S26Q/V29T/W56D gave 930 pM (6 of 6 replicates).
Variant S25L/Q27Y/W56E gave 450 pM (6 of 6 replicates).
Variant S25Q/S33D/R34V/W56D gave 2.3 nM (6 of 6 replicates).
Variant S25L/L30C/W56D gave 5.4 nM (6 of 6 replicates).
Variant S25L/W56E/S62V gave 1.2 nM (6 of 6 replicates).

For reference, 2 entries of the list once more:

{"changes": "S25L/W56E/Q96C", "Kd (apparent)": "3.8 nM", "seen in": "6 of 6"}
{"changes": "S25F/S28E/V29M/W56N/T59C/H98W", "Kd (apparent)": "1.3 nM", "seen in": "6 of 6"}

Of ten entries with the parent sequence, four were seen in most replicates (averages 2.2 nM to 240 nM), three in one and three in none, so single entries are noisy.
The authors averaged sequences with at least three values out of six and counted those with two or fewer as poor binders.
Values of this round are not directly comparable with the first-round values of the same sequences.
Nonspecific signal, from three strains lacking the peptide, appeared in 4% of pairings of all light chain designs, centred on 430 nM (5% of these signals below 38 nM); values are not corrected for it.